## Binding of CDR-mutated scFvs to a peptide of the spike HR2 region

The measurements come from Engelhart et al. 2022 (doi:10.1038/s41597-022-01779-4) through the FLAb antibody collection.

Target: peptide PDVDLGDISGINAS, taken from heptad repeat 2 (HR2) of SARS-CoV-2 spike.

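The starting antibody came from a phage panning campaign against this peptide. The library (AAYL50) carries one to three amino acid substitutions per variant, with no insertions or deletions. The assay is AlphaSeq: two haploid yeast populations carry antibody and antigen on their surface. Binding brings cells together so that they mate, and sequencing counts the barcode pairs among the diploids. Scores were corrected for input abundance and mapped to Kd with protein pairs of known affinity run in the same pool. Mating was done three times.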

The variants keep the heavy chain, the linker and the frameworks of Ab-14 (scFv order VH, three GGGGS repeats, VL).
VH: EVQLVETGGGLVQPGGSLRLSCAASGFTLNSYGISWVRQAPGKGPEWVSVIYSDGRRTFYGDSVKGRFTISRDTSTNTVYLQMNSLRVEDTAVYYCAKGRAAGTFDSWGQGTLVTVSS
VL: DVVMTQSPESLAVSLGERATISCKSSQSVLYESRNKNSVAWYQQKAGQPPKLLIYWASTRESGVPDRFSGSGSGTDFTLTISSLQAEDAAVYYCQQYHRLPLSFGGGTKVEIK

The parent's light chain CDRs are KSSQSVLYESRNKNSVA, WASTRES, QQYHRLPLS; each variant's own CDRs replace them letter for letter.
The Kd shown is the geometric mean over detected replicates; a lower Kd is a better binder.
"no signal" marks a missing value. The strain was present, yet no cells mated with the target were sequenced in any replicate, which points to weak or no binding.
Empty control strains, which show no peptide, gave a signal in 18% of pairings with library AAYL50; the median was 15 µM and 95% of these signals were weaker than 970 nM. No background was subtracted.
Parent in this assay: reference entry 4.4 nM, copy in this library 48 nM.

CDR-L1 | CDR-L2 | CDR-L3 | Kd | detected
KSSQHVLYESRNKNIVA | WASTRES | QQHHRLPLS | 18 µM | 3 of 3
KSSQSVMPESRGKNSVA | WASTRES | QQYHRLPLS | 7.0 nM | 3 of 3
KSSQSVLYESRSKNSQA | WASTRES | PQYHRLPLS | 160 µM | 1 of 3
KSSQSYLYESRNKNSVA | WASTRES | QDYHRLFLS | 190 nM | 3 of 3
KSSQSVIHESRNKNSVA | WASTRES | QQYHRLYLS | 7.4 µM | 1 of 3
KSSQSILYEVRNKNSVA | WASTRES | QQYHRGPLS | 1.4 µM | 2 of 3
KSSQSVLYRSRNKNSVA | WASTRES | QQLHDLPLS | 43 nM | 3 of 3
KSSQSVLSESRNKNSVA | WASTLES | QQYHRLFLS | 6.6 nM | 3 of 3
KSSQSVLYESRNKNPVA | WASTRES | QQYRRLPLS | 410 nM | 3 of 3
KSSQSALYESRNKNSVA | WASTRES | QQYPQLPLS | 17 µM | 1 of 3
KSSQSNLYESRNKNHVA | WCSTRES | QQYHRLPLS | 16 µM | 2 of 3
KSSQSVSYESQNKNSVA | WASTREM | QQYHRLPLS | 4.6 nM | 3 of 3
KSPQSVCYESRNKNSVA | WASTRES | QQYHRLPLS | 11 nM | 3 of 3
KSSQSVEYESRNKNSVA | WAFCRES | QQYHRLPLS | 430 µM | 1 of 3
KSSQSVLYESRNKNSVA | WTSTQET | QQYHRLPLS | 130 µM | 1 of 3
KSSQSVLYESRNKNSYA | MASTRES | QQYHRLILS | 58 µM | 2 of 3
KRSQSVLYESRNKNSVA | WASTTES | QQYNRLPLS | no signal | 0 of 3
KSMQSVLYESRQKNSVA | WASTRES | QGYHRLPLS | 61 nM | 3 of 3
KSSQSVLYESRTKNKVA | WASTRES | QQYHKLPLS | no signal | 0 of 3
KSPQSVLYESRNKWSVA | WASTRES | QQYHRLPRS | 560 nM | 2 of 3
KSSQSVLYESRNKNSVA | WTSRRSS | QQYHRLPLS | 150 nM | 3 of 3
KKSQSVLYESRNRNSVA | WASTRES | QQYHRLPLT | 41 nM | 1 of 3
KSSQSVLYHHRNKNSVA | WAMTRES | QQYHRLPLS | 1.1 µM | 1 of 3
KSSTSVLYESRNKNSVA | GASTRLS | QQYHRLPLS | 1.6 nM | 3 of 3
KSAQSVLYESRNPNSVA | WASTRES | QQYHRLPLS | 12 nM | 3 of 3
KPSQSVLYEWRNKNSVA | WASTRES | QQYHRLSLS | 530 nM | 3 of 3
WTSQSVLYESRNKNSVW | WASTRES | QQYHRLPLS | 370 µM | 1 of 3
KSSQSVLYESMNKNSVA | WASTRES | QQYHQLPLS | 3.3 nM | 3 of 3
KSSQMLLYESRNKASVA | WASTRES | QQYHRLPLS | 6.4 nM | 3 of 3
KSLQSVLYESRNKNYVA | WASTRES | QQYHRLPLD | no signal | 0 of 3
KKSQSVLFESRNKNSVA | WWSTRES | QQYHRLPLS | no signal | 0 of 3
KSSQSVLYESRYKDSVA | WASTREH | QQYHRLPLS | 68 nM | 3 of 3
PSSQSVLMESRNKNSVA | WASTRES | QQYHRLPLS | 2.6 µM | 1 of 3
KSSQAVLYESRNKDSVA | WANTRES | QQYHRLPLS | 14 nM | 3 of 3
KQSQSVLYESWNKNSEA | WASTRES | QQYHRLPLS | no signal | 0 of 3
KSSQSVLYESRNQNSVA | WASARED | QQYHRLPLS | 4.1 nM | 3 of 3
KSSQSVLYESRNKNSVA | WASTRES | QQNCRLPLS | no signal | 0 of 3
KLSQSVLYESRNKNSVA | NASTRES | DQYHRLPLS | 840 pM | 3 of 3
KSSASVFYESRNKNSVA | WASTRES | QQAHRLPLS | 25 µM | 2 of 3
KSSQSVLYESTNKNSVA | WASTRTS | QQYHRRPLS | 8.9 nM | 3 of 3
KSSQSVLYESRNKNSVQ | WASTRES | QQYHRAPLQ | 65 µM | 2 of 3
KSSQICLYESRNKNSVA | WASTRES | QQYHRLPLI | no signal | 0 of 3
KSSQSVLYESRNHNSVA | WASTRES | QQYKRLPLS | 1.7 µM | 3 of 3
KSSQSVLYESRNKNSVA | WASTRPG | YQYHRLPLS | 1.7 µM | 1 of 3
ISSQSVLYENRNKNDVA | WASTRES | QQYHRLPLS | 6.2 µM | 3 of 3
KSSQSVLYESRNKNYVA | VASTRES | QQYHRLPVS | 120 µM | 2 of 3
KSSQSVLYESRNKNSVA | WANTRES | QQYMRLPLN | no signal | 0 of 3
KSSQSVLYEITNKNSVA | WASTREN | QQYHRLPLS | 4.5 nM | 3 of 3
KSSQSVLYESRNINIVA | WAGTRES | QQYHRLPLS | 75 µM | 3 of 3
KTSQSVLYESRNKNSVA | WASNRES | QQYWRLPLS | 7.4 nM | 3 of 3
WSSQSVLYESRNKWSVA | WASTRES | QQYHRLPLQ | 5.7 nM | 3 of 3
KSSQSVQVESRNKNSVA | WASTRES | NQYHRLPLS | 5.7 nM | 3 of 3
KSSQSVLYSSRVKNPVA | WASTRES | QQYHRLPLS | 100 nM | 3 of 3
KSKQSVLYESRQKNSVA | WASTRES | QQYHRLCLS | no signal | 0 of 3
KQSQSVLYESRNKNGVA | WASTRES | QQYHRLPLH | no signal | 0 of 3
KSSQFVLYESRNKKSVA | WGSTRES | QQYHRLPLS | 170 nM | 3 of 3
KSSQSVLYESRNKNAMA | WASTRES | QQYHRLPWS | 11 nM | 3 of 3
ESSQSVLYESRNKNSVF | WASTRES | QQYHRLLLS | no signal | 0 of 3
KSSQSVLYESRNKNSVA | WASTRLS | QAYHCLPLS | 1.2 µM | 1 of 3
LSSQSVLSESRNKNSVV | WASTRES | QQYHRLPLS | 22 µM | 1 of 3
KYSQSVLYPSRNKNSVA | WASTIES | QQYHRLPLS | 1.6 µM | 3 of 3
KSSQSVQYESREKNSVA | WASTRES | QQYSRLPLS | 6.0 nM | 3 of 3

The 6 strongest on average among those seen in every replicate, once more:

CDR-L1	CDR-L2	CDR-L3	Kd	detected
KLSQSVLYESRNKNSVA	NASTRES	DQYHRLPLS	840 pM	3 of 3
KSSTSVLYESRNKNSVA	GASTRLS	QQYHRLPLS	1.6 nM	3 of 3
KSSQSVLYESMNKNSVA	WASTRES	QQYHQLPLS	3.3 nM	3 of 3
KSSQSVLYESRNQNSVA	WASARED	QQYHRLPLS	4.1 nM	3 of 3
KSSQSVLYEITNKNSVA	WASTREN	QQYHRLPLS	4.5 nM	3 of 3
KSSQSVSYESQNKNSVA	WASTREM	QQYHRLPLS	4.6 nM	3 of 3